# Assay results taken from US20250326733A1, “A NEW ROUTE FOR SY[…] CHIRAL CANNABINOIDS FROM COUMARINS” (University of Florida Research Foundation, Inc., priority 2021, published 2025).
# Sequences of proteins named here, by UniProt entry; tags and fusion partners are left off.
# UniProt P21554, whole entry: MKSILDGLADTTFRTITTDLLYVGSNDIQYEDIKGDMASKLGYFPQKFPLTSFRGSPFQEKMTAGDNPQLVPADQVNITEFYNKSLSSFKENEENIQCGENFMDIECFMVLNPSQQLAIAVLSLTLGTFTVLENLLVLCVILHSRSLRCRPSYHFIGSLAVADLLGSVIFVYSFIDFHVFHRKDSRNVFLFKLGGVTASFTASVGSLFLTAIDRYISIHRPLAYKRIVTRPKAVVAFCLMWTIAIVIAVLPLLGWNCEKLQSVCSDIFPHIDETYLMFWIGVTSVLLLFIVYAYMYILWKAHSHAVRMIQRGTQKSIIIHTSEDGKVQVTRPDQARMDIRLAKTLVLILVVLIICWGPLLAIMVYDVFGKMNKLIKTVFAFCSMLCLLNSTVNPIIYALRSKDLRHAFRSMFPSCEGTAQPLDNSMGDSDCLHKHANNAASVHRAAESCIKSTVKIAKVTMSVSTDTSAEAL
# UniProt P34972, whole entry: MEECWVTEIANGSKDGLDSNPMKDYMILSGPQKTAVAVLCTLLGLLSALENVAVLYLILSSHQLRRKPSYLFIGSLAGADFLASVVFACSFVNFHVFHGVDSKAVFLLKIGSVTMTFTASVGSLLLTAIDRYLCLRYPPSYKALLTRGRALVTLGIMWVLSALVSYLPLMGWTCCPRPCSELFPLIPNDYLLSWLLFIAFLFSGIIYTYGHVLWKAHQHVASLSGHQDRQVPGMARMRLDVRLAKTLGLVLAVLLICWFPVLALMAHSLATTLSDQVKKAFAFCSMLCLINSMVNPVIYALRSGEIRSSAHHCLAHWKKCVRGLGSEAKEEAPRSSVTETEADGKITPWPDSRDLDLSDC
# Like-named read-outs stand apart in the source and are kept apart here.
# Experiments:
# [1] = target: T1, hCB1R (Homo sapiens, UniProt P21554); experiment: Functional activity (agonism), TRUPATH assay of Gαiβ3γ9 protein activation; format: cell-based
# [2] = target: T2, hCB2R (Homo sapiens, UniProt P34972); experiment: as above; format: cell-based
# [3] = target: T1, hCB1R; experiment: Binding affinity at human cannabinoid receptor 1
# [4] = target: T2, hCB2R; experiment: Binding affinity at human cannabinoid receptor 2
structure (smiles),measurement,setting,value
CCCCCCC(C)(C)c1cc(O)c(-c2c(CO)cccc2C(C)C)c(OC)c1,agonism / efficacy (in words),[1],not at hCB1R at concentrations up to 31.6 μM
same,agonism / efficacy (in words),[2],exhibited agonism
same,agonism / efficacy (in words),[2]; listed as rac-axCBN-2,selective CB2R agonist
same,Emax,"[2]; mean ± SEM, n >= 3",0.0839 ± 0.0176
same,pEC50,"[2]; mean ± SEM, n >= 3",7.54 ± 0.381
same,Ki,[3],2.14 µM
same,pKi ± SEM,[3],5.67 ± 0.0821
same,selectivity for hCB2R over hCB1R,[4],4.8 fold
same,Ki,[4]; hCB2R,0.447 µM
same,pKi ± SEM,[4]; hCB2R,6.35 ± 0.0755
same,CB1/CB2,[4]; ratio of Ki hCB1R / hCB2R,4.8
